Consider 1 molecule from ChEMBL document CHEMBL1131259, “Synthesis and evaluation of diphenyl phosphonate esters as inhibitors of the trypsin-like granzymes A and K and mast cell tryptase” (J Med Chem, 1998).

The experiment concerns the target T1, Granzyme A (Homo sapiens) (UniProt P12544).
T1 sequence (whole entry): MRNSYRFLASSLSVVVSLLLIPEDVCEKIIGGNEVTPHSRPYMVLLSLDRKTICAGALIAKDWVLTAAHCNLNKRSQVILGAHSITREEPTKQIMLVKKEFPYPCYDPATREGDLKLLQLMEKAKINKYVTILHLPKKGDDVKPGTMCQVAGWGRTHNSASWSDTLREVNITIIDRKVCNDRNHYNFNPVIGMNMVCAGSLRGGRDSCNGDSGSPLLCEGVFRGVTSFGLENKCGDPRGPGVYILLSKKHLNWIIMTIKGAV
Kind of experiment: Inhibition of human granzyme A. A digest of the protocol:
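Recombinant human and rat granzyme A, incubated with inhibitor (1.0–450 μM) at 25 °C in 0.1 M Hepes, 0.01 M CaCl2, pH 7.5 (7.6% DMSO). Timed aliquots were read for residual activity on Cbz-Arg-SBzl with DTNB at 405 nm. k_obs came from ln vt/vo vs time over 5–10 points and 2–3 half-lives, two k_obs per inhibitor. DMSO controls were run.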

`N=C(N)c1ccc(C(NC(=O)OCc2ccccc2)P(=O)(Oc2ccccc2)Oc2ccccc2)cc1` (stereo unspecified) gave a kobs/[I] (second-order inactivation rate constant) of 1180 M⁻¹ s⁻¹.
